{
  "source": "patent EP0803065B1",
  "about": "“A-PROTEIN AS A DIAGNOSTIC OF CANCER” (THE SCHEPENS EYE RESEARCH INSTITUTE, priority 1995, dated 1996)",
  "target": "T1, soluble A-protein (As), purified from bovine rod outer segments, N-terminus SEQ ID NO:2 (Bos taurus, UniProt P21457)",
  "T1 sequence (P21457 2-202)": "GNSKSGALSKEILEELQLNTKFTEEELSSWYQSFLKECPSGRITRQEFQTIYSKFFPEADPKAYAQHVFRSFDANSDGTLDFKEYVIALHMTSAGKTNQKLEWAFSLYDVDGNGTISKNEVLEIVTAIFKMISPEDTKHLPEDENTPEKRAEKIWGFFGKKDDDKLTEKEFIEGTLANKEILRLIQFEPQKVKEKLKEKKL",
  "assay": "ATPase assay (hydrolysis of [γ-32P]ATP)",
  "type": "biochemical",
  "settings": "double reciprocal plots and regression analysis",
  "description": "The rate of hydrolysis of GTP or ATP by both soluble and membrane-bound A-protein was assayed in a total volume of 200 µl. 1.0 to 10.0 µg As or Am, 5 x 10^-5 M GTP or ATP, 67 to 335 nM [γ-^32P] GTP (2.8 Ci/mmol) or 88.8 to 177.5 nM [γ-^32P] ATP (2.8 Ci/mmol) and 20 µl of stripped ROS membranes (in the case of Am) were mixed in buffer J (20 mM Tris-HCl, pH 7.0, 0.1 mM EDTA). The stripped ROS membranes (containing rhodopsin as the receptor) were prepared by washing ROS membranes 3 times in buffer C(100 mM NaCl, 20 mM Tris-HCl, pH 7.0, 1 mM MgCl2) and 3 times in water containing 0.01% polyoxyethylene 23 lauryl ether (Brij 35™ nonionic detergent, Sigma Chemical Co.). […]\nThe effect of light on the hydrolysis of GTP or ATP was investigated by means of duplicate incubations in light exposure trials (a bright 10 msec xenon flash (Nikon) delivering 1.8 x 10^3 µWcm^-2sec^-1 which was sufficient to bleach greater than 70% of the rhodopsin present in each sample) or kept in the dark as controls. […] 50 µl aliquots of each supernatant were placed in a vial with 5 ml scintillation fluid and assayed for radioactivity. The hydrolysis of [γ-^32P]-GTP was measured in the presence and absence of photolyzed rhodopsin.\nThe apparent Michaelis constant was determined for As and Am by measuring the rate of GTP hydrolysis over a thousand-fold range of substrate concentrations. […]",
  "data": [
    {"smiles": "Nc1ncnc2c1ncn2[C@@H]1O[C@H](COP(=O)(O)OP(=O)(O)OP(=O)(O)O)[C@@H](O)[C@H]1O", "note": "[ATP, adenosine triphosphate]", "values": [
      {"measurement": "Vmax:As ATPase", "value": "0.56 (±0.09) pmol/mg A-protein min^-1"}
    ]}
  ]
}
